For the test, the target named is human recombinant muscarinic receptor M-1 (Homo sapiens, UniProt P11229). As to the kind of experiment: biochemical. It counts as binding. The note with it: membranes from SF9 cells, radioligand 3H scopolamine methylchloride; read-out: Affinity (negative logarithm of the dissociation constant Ki), M-1 (converted).

The chains behind the UniProt entries cited, without tags or fusion partners. Where a name states a change or a piece, a line headed by the entry shows the natural chain unless it says otherwise.
UniProt P11229: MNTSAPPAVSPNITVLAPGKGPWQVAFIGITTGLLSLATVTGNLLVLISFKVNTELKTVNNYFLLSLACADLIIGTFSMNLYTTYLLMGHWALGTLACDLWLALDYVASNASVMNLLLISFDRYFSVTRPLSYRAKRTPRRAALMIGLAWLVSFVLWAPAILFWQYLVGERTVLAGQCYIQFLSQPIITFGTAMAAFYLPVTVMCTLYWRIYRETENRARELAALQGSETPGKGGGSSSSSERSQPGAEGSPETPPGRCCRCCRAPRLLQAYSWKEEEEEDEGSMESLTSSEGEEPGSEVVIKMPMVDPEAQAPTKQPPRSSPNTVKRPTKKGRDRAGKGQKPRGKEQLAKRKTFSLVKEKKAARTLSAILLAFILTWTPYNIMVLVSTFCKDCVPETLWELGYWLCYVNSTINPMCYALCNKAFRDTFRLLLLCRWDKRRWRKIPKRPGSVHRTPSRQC

For the molecule `NC(=O)C(c1ccccc1)(c1ccccc1)[C@@H]1CCN(CCc2ccc3c(c2)CCO3)C1` [Darifenacin], the Ki was 5.01 nM.

Values taken from US20060287347A1, “Methods for treating smooth muscle disorders using trospium” (priority 2005, published 2006).
